Paper PMC8469817, “Synthesis and Decontamination Effect on Chemical and Biological Agents of Benzoxonium-Like Salts” (2021)

Columns and labels:
[1] = Conductometric determination of critical micelle concentration; conditions: conductometry, aqueous solutions at 49 °C
[2] = Micellar catalysis: fenitrothion degradation (Guggenheim method)
[3] = test system: CHO-K1 cells; assay: MTT cell viability assay; conditions: read-out: IC50 ± SEM, 24 h exposure, n = 3

Row | Structure (SMILES) | CMC [1] [mol/L] | log CMC [1] | 10^4 k ([2]; c 1 mM, pH 11, 37 °C) [s^−1] | 10^4 k ([2]; c 5 mM, pH 10, 37 °C) [s^−1] | 10^4 k ([2]; c 5 mM, pH 11, 37 °C) [s^−1] | 10^4 k ([2]; c 10 mM, pH 10, 37 °C) [s^−1] | 10^4 k ([2]; c 10 mM, pH 11, 37 °C) [s^−1] | IC50 [3] [µM] | further results
1 | CCCCCCCCCCCC[N+](CCO)(CCO)Cc1ccccc1.[Cl-] | 0.00871 | −2.060 | 1.80 | 1.15 | 5.93 | 2.65 | 8.23 | – | 10^4 k ([2]; c 50 mM, pH 10, 37 °C): 2.35 s^−1; 10^4 k ([2]; c 50 mM, pH 11, 37 °C): 9.35 s^−1; 10^4 k ([2]; c 100 mM, pH 10, 37 °C): 1.67 s^−1; 10^4 k ([2]; c 100 mM, pH 11, 37 °C): 8.17 s^−1
2 | CCCCCCCCCCCC[N+](CCO)(CCO)Cc1ccccc1 | – | – | – | – | – | – | – | 36.1 | –
3 | CCCCCCCCCCCCCC[N+](CCO)(CCO)Cc1ccccc1.[Cl-] | 0.003003 | −2.522 | 11.28 | 5.82 | 23.62 | 6.77 | 24.62 | – | 10^4 k ([2]; c 0.1 mM, pH 10, 37 °C): 0.50 s^−1; 10^4 k ([2]; c 0.1 mM, pH 11, 37 °C): 1.17 s^−1; 10^4 k ([2]; c 0.5 mM, pH 10, 37 °C): 1.12 s^−1; 10^4 k ([2]; c 0.5 mM, pH 11, 37 °C): 3.80 s^−1; 10^4 k ([2]; c 1 mM, pH 10, 37 °C): 2.02 s^−1
4 | CCCCCCCCCCCC[N+](C)(C)Cc1ccccc1 | – | – | – | – | – | – | – | 19.5 | –
5 | CCCCCCCCCCCCCCCC[N+](CCO)(CCO)Cc1ccccc1.[Cl-] | 0.001159 | −2.936 | 12.32 | 11.14 | 49.06 | 11.56 | 50.73 | – | 10^4 k ([2]; c 0.1 mM, pH 10, 37 °C): 1.10 s^−1; 10^4 k ([2]; c 0.1 mM, pH 11, 37 °C): 1.77 s^−1; 10^4 k ([2]; c 0.5 mM, pH 10, 37 °C): 2.30 s^−1; 10^4 k ([2]; c 0.5 mM, pH 11, 37 °C): 6.47 s^−1; 10^4 k ([2]; c 1 mM, pH 10, 37 °C): 3.97 s^−1
6 | CCCCCCCCCCCCCCCC[N+](CCO)(CCO)Cc1ccccc1 | – | – | – | – | – | – | – | 19.6 | –
7 | CCCCCCCCCC[N+](CCO)(CCO)Cc1ccccc1.[Cl-] | 0.04836 | −1.316 | – | – | 0.35 | 0.18 | 0.50 | – | 10^4 k ([2]; c 50 mM, pH 10, 37 °C): 3.77 s^−1; 10^4 k ([2]; c 50 mM, pH 11, 37 °C): 12.68 s^−1; 10^4 k ([2]; c 100 mM, pH 10, 37 °C): 3.97 s^−1; 10^4 k ([2]; c 100 mM, pH 11, 37 °C): 12.82 s^−1; 10^4 k ([2]; c 500 mM, pH 10, 37 °C): 2.30 s^−1; 10^4 k ([2]; c 500 mM, pH 11, 37 °C): 6.20 s^−1
8 | CCCCCCCCCCCCCCCCCC[N+](CCO)(CCO)Cc1ccccc1.[Cl-] | 0.0004707 | – | 13.95 | 6.98 | 23.30 | – | – | – | 10^4 k ([2]; c 0.05 mM, pH 10, 37 °C): 0.28 s^−1; 10^4 k ([2]; c 0.05 mM, pH 11, 37 °C): 0.83 s^−1; 10^4 k ([2]; c 0.1 mM, pH 10, 37 °C): 0.82 s^−1; 10^4 k ([2]; c 0.1 mM, pH 11, 37 °C): 1.87 s^−1; 10^4 k ([2]; c 0.5 mM, pH 10, 37 °C): 2.97 s^−1; 10^4 k ([2]; c 0.5 mM, pH 11, 37 °C): 7.82 s^−1; 10^4 k ([2]; c 1 mM, pH 10, 37 °C): 4.37 s^−1
9 | CCCCCCCCCCCCCC[N+](CCO)(CCO)Cc1ccccc1 | – | – | – | – | – | – | – | 27.3 | –
10 | CCCCCCCCCC[N+](CCO)(CCO)Cc1ccccc1 | – | – | – | – | – | – | – | 128 | –
11 | CCCCCCCCCCCCCCCCCC[N+](CCO)(CCO)Cc1ccccc1 | – | – | – | – | – | – | – | 19.1 | –
